Laboratory results from PubChem BioAssay AID951 (NMMLSC, 2007).
This is a selection; strong and weak results do not stand in their true shares. Activity calls are given as the source filed them. No stated cut-off is given here; in the data, active means inhibition above about 40%.

Chains of the proteins cited; added tags and fusions are not shown. Lines headed by an entry give the natural chain unless they say otherwise; changes in a name come on top.
UniProt Q9HD36: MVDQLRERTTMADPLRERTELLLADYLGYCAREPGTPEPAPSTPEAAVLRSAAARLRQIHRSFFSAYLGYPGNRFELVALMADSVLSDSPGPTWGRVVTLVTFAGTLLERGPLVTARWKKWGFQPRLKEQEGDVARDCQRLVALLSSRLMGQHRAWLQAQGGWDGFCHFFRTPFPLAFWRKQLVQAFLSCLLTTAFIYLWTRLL

target: Bcl-2-like protein 10 (Homo sapiens) (UniProt Q9HD36); assay: inhibitors of Bim-Bcl-B binding, primary screen, biochemical, multiplexed, human Bcl-2 family (AID 951); conditions: bead-based flow cytometry, Bim peptide-Bcl-B binding; at 10 µM; hits give high values;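 further: 0% = tracer peptide without compound and 100% = reference inhibitor peptide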

Compound	inhibition
CCN(N=Nc1nonc1N)c1nonc1N	inactive: -6%
CCOP(=O)(Nc1ccccc1)OCC	inactive: -1%
Cc1cc(SC(NC(=O)c2ccc(F)cc2)C(Cl)(Cl)Cl)ncn1 (centres undefined)	inactive: -33%
Cc1c2non([O-])c-2c(C)[n+](=O)[n+]1[O-]	inactive: 0%
O=C(NC(Sc1ccncn1)C(Cl)(Cl)Cl)c1ccccc1 (centres undefined)	inactive: -21%
Oc1ccccc1CNc1ccccn1	inactive: -11%
CC(C)CC(=O)NC(Sc1ccc(Cl)cc1)C(Cl)(Cl)Cl (centres undefined)	inactive: -6%
Cc1ccc(N/C(=N/P(=O)(N2CCOCC2)N2CCOCC2)N2CCOCC2)cc1	inactive: 0%
NC(=O)c1cc([N+](=O)[O-])cc([N+](=O)[O-])c1N	inactive: 0%
Clc1ccc(Cl)c(NC2=NCC(CBr)S2)c1 (centres undefined)	inactive: -12%
CN1CCCC(OC(=O)C(c2ccccc2)c2ccccc2)C1 (centres undefined)	inactive: -2%
COc1ccccc1OP(=O)(Nc1ccc(C)cn1)Oc1ccccc1OC	inactive: -1%
CCN(/C(=N/P(=O)(N1CCOCC1)N1CCOCC1)N1CCOCC1)c1ccc(OC)cc1	inactive: -2%
CC1CCN(C(=O)Oc2c(Cl)cc(Cl)c3cccnc23)CC1	inactive: -3%
CN(C)C(=O)OCCc1n(C)cc[n+]1C	inactive: -10%
CC(C)=N/N=C(\N)N[N+](=O)[O-]	inactive: -13%
COc1ccc(C2=NCC(CBr)S2)cc1 (centres undefined)	inactive: -7%
CCc1nc2c(n1)c1c(non1O)c1c2no[n+]1[O-]	inactive: 18%
O=[N+]([O-])c1cc([N+](=O)[O-])c(CCNc2ccccc2)c([N+](=O)[O-])c1	inactive: 4%
Cc1ccc(NP(=O)(Oc2ccccc2)Oc2ccccc2)nc1	inactive: -2%
O=[N+]([O-])c1cccc2n[nH]nc12	inactive: -11%
CC(=O)N1C2C3N(C(C)=O)C1C1N(C(C)=O)C(C(N1C(C)=O)N3C(C)=O)N2C(C)=O	inactive: -2%
O=[N+]([O-])c1ncn(CCn2ncnc2[N+](=O)[O-])n1	inactive: 0%
CC(=O)NC(SC(=S)N(C)C)C(Cl)(Cl)Cl (centres undefined)	inactive: -12%
O=C(OC1CN2CCC1CC2)c1cccc(Cl)c1 (centres undefined)	inactive: 0%
C(Cc1nn[nH]n1)Cc1nn[nH]n1	inactive: -1%
O=P(Nc1ccccn1)(c1ccc(Br)cc1)c1ccc(Br)cc1	inactive: -2%

Compound	inhibition
CC(C)C(=O)NC(Sc1ccccc1)C(Cl)(Cl)Cl (centres undefined)	inactive: -13%
O=P(Nc1nccs1)(c1ccccc1)c1ccccc1	inactive: -7%
c1nnnn1CCn1cnnn1	inactive: -7%
CC(=O)Nc1ccc(Oc2c([N+](=O)[O-])cc([N+](=O)[O-])cc2[N+](=O)[O-])cc1	inactive: 3%
CCOc1ccc(C2=NCC(CBr)S2)cc1 (centres undefined)	inactive: 0%
O=P1(Nc2nc3ccc(Cl)cc3s2)COc2ccccc2O1 (centres undefined)	inactive: -5%
CC(C)(C)C(=O)NC(Sc1ccccc1)C(Cl)(Cl)Cl (centres undefined)	inactive: -2%
CCC(=O)N1C2C3N(C(=O)CC)C1C1N(C(=O)CC)C(C(N1C(=O)CC)N3C(=O)CC)N2C(=O)CC	inactive: 4%
Cc1ccc(OP(=O)(Nc2ccccn2)Oc2ccc(C)cc2)cc1	inactive: 0%
CC(=O)NC(SC(=S)N(CC(C)C)CC(C)C)C(Cl)(Cl)Cl (centres undefined)	inactive: -5%
COC(=O)c1cc2c(s1)N=C(c1ccccc1)N(C)P2(=O)N1CCOCC1 (centres undefined)	inactive: -1%
O=c1c2cc([N+](=O)[O-])ccc2[nH]c2c([N+](=O)[O-])cc([N+](=O)[O-])cc12	inactive: -3%
CCOC(=O)NC(Sc1ccccc1)C(Cl)(Cl)Cl (centres undefined)	inactive: -6%
c1ccc(-c2nn[nH]n2)c(-c2nn[nH]n2)c1	inactive: 1%
CCNC(=S)/N=C(\N)N[N+](=O)[O-]	inactive: -1%
O=C(NC1CCS(=O)(=O)C1)NP(=S)(Oc1ccccc1)Oc1ccccc1 (centres undefined)	inactive: -9%
CCOP1(=S)c2c(C)nn(CCC#N)c2N=C(c2ccc(F)cc2)N1C (centres undefined)	inactive: -8%
O=[N+]([O-])c1ccc2c(c1)nnn2O	inactive: -3%
O=P(Nc1nccs1)(c1ccccc1)c1nc2ccccc2s1 (centres undefined)	inactive: -6%
O=P(Nc1nccs1)(Oc1ccccc1)Oc1ccccc1	inactive: -2%
CCOP1(=S)c2c(C)nn(CCC#N)c2N=C(c2ccccc2F)N1C (centres undefined)	inactive: -10%
Cc1ccc(NCCc2c([N+](=O)[O-])cc([N+](=O)[O-])cc2[N+](=O)[O-])cc1	inactive: -3%
CCOP(=O)(Nc1cccc2ccccc12)OCC	inactive: -6%
COc1cc(C2NCCC3(OCCO3)C2(C)C)cc(OC)c1OC (centres undefined)	inactive: 5%
COc1cc(C(=O)NCC2(N3CCOCC3)CCCCC2)cc(Cl)c1OC(C)C	inactive: -6%
Cc1cccc(OCC(=O)OC2CN3CCC2CC3)c1 (centres undefined)	inactive: 0%
CC(C)/C=N\N=C(\N)N[N+](=O)[O-]	inactive: 0%

Compound	inhibition
CN(C(=O)Cc1ccc(Cl)c(Cl)c1)[C@@H]1CCCC[C@H]1N1CCCC1	inactive: 0%
O=P1(Nc2ccccn2)COc2ccccc2OC1	inactive: -9%
Clc1n[nH]nc1-c1nn[nH][15n]1	inactive: -10%
O=P1(Nc2ncccn2)COc2ccccc2OC1	inactive: -1%
O=P1(Nc2ccc(Br)cn2)COc2ccccc2OC1	inactive: -6%
Cc1ccc(OCC(=O)OC2CN3CCC2CC3)cc1 (centres undefined)	inactive: -7%
CC1CCC(C(C)C)C(OP(=O)(Nc2ccccn2)c2ccccc2)C1 (centres undefined)	inactive: -5%
Cc1nn(-c2ccccc2)c2c1P(=O)(N1CCOCC1)N(C)C(c1ccccc1)=N2 (centres undefined)	inactive: 1%
CN(C)C1(CNC(=O)c2ccc(S(C)(=O)=O)cc2)CCCCC1	inactive: 1%
O=P(Nc1ccccn1)(c1cccc2ccccc12)c1cccc2ccccc12	inactive: -5%
Cc1cc(SC(NC=O)C(Cl)(Cl)Cl)ncn1 (centres undefined)	inactive: -24%
Cc1cc(SC(NC(=O)c2ccccc2)C(Cl)(Cl)Cl)nc(C(C)C)n1 (centres undefined)	inactive: -24%
CCC(C)N(CC(C)C)C(=S)SC(NC(C)=O)C(Cl)(Cl)Cl (centres undefined)	inactive: -3%
COP1(=S)c2c(C)nn(CCC#N)c2N=C(c2ccc(F)cc2)N1C (centres undefined)	inactive: -7%
O=C(COc1ccccc1)OC1CN2CCC1CC2 (centres undefined)	inactive: 1%
COc1ccc(N/C(=N/P(=O)(N2CCOCC2)N2CCOCC2)N2CCOCC2)cc1	inactive: -6%
Cc1c2c(nc3ccccc13)SC(C(Cl)Cl)C2 (centres undefined)	inactive: -2%
Cc1cc(=O)[nH]c(N[N+](=O)[O-])n1	inactive: -1%
O=C(OC1CN2CCC1CC2)C12CC3CC(CC(C3)C1)C2 (centres undefined)	inactive: -7%
COc1ccc2nc(NP(=O)(c3ccccc3)c3ccccc3)sc2c1	inactive: -2%
ClCCSc1nnc(-c2cccnc2)o1	inactive: -8%
O=[N+]([O-])c1cc([N+](=O)[O-])c(-c2ccn[nH]2)s1	inactive: -21%
CCN(CC)C(=S)SC(NC=O)C(Cl)(Cl)Cl (centres undefined)	inactive: -7%
CC(C)NC(=O)NP(=O)(Oc1ccccc1)Oc1ccccc1	inactive: -4%
Cc1ccc2nc3c(c(C)c2c1)CC(C(Cl)Cl)S3 (centres undefined)	inactive: -8%
